Assay results published in article PMC12018053 (Biochemistry and Biophysics Reports, 2025).

The chains behind the UniProt entries cited, without tags or fusion partners.
UniProt P34913, whole entry: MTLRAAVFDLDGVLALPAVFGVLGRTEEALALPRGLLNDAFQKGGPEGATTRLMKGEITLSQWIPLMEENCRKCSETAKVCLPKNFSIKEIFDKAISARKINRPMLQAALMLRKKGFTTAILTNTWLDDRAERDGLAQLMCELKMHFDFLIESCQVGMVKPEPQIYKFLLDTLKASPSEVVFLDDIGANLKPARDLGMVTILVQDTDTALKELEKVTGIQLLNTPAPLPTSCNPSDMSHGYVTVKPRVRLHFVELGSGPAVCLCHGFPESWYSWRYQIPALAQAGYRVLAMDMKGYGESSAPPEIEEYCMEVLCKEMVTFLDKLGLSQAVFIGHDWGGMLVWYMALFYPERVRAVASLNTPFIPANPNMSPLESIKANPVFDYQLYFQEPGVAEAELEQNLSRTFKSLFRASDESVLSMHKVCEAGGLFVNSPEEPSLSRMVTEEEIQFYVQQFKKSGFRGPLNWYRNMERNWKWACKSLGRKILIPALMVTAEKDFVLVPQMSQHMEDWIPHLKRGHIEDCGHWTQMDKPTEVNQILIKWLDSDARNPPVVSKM

Target: Human sEH (Homo sapiens, UniProt P34913)
Test: sEH fluorescent-based inhibition assay
Type: biochemical

IC50: 1.7 nM
SMILES: O=C(Nc1ccc(-c2ccccn2)cc1)C1CCN(S(=O)(=O)c2ccccc2Cl)CC1 [Compound 4h, 1-((2-chlorophenyl)sulfonyl)-N-(4-(pyridin-2-yl)phenyl)piperidine-4-carboxamide]
